These compounds were tested on JAK1-dependent STAT6 phosphorylation downstream of IL-13 stimulation in BEAS-2B cells.
For CC(C(=O)N1CCN(C)CC1)n1cc(Nc2nc3c(N4CC5CCC(C4)N5C(=O)C4CC(C(F)(F)F)C4)cccn3n2)cn1 (stereo not drawn) [Example 125, 1-(4-methylpiperazin-1-yl)-2-[4-[[8-[8-(3-(trifluoromethyl)-cyclobutanecarbonyl]-3,8-diazabicyclo[3.2.1]octan-3-yl]-[1,2,4]triazolo[1,5-a]pyridin-2-yl]amino]pyrazol-1-yl]propan-1-one], the IC50 was 71.2 nM. CN1CCN(C(=O)Cn2cc(Nc3nc4c(N5CC6CCC(C5)N6S(=O)(=O)c5ccccc5)cccn4n3)cn2)CC1 [Example 61, 2-[4-[[8-[8-(benzenesulfonyl)-3,8-diazabicyclo[3.2.1]octan-3-yl]-[1,2,4]triazolo[1,5-a]pyridin-2-yl]amino]pyrazol-1-yl]-1-(4-methylpiperazin-1-yl)ethanone] gave an IC50 of 14.8 nM. Work on CN1CCN(C(=O)Cn2cc(Nc3nc4c(N5CC6CCC(C5)N6S(=O)(=O)c5ccccc5C(F)(F)F)cccn4n3)cn2)CC1 [Example 148, 1-(4-methylpiperazin-1-yl)-2-[4-[[8-[8-(2-(trifluoromethyl)phenyl]sulfonyl-3,8-diazabicyclo[3.2.1]octan-3-yl]-[1,2,4]triazolo[1,5-a]pyridin-2-yl]amino]pyrazol-1-yl]ethanone] yielded an IC50 of 105 nM. COc1ccc(CO[C@H]2[C@@H]3CC[C@H]2CN(c2cccn4nc(Nc5cnn(CC(=O)N6CCN(C)CC6)c5)nc24)C3)cc1 [Example 163, 1-(4-methylpiperazin-1-yl)-2-[4-[[8-[rac-(1S,5R)-8-[(4-methoxyphenyl)methoxy]-3-azabicyclo[3.2.1]octan-3-yl]-[1,2,4]triazolo[1,5-a]pyridin-2-yl]amino]pyrazol-1-yl]ethanone] was tested, and the IC50 was 62.1 nM. Work on N#CC1(CNC2CCN(C(=O)Cn3cc(Nc4nc5c(N6CC7CCC(C6)N7C(=O)C6CC(C(F)(F)F)C6)cccn5n4)cn3)CC2)CC1 (stereo not drawn) [Example 191, 1-[[[1-[2-[4-[[8-[8-[3-(trifluoromethyl)cyclo-butanecarbonyl]-3,8-diazabicyclo[3.2.1]octan-3-yl]-[1,2,4]triazolo[1,5-a]pyridin-2-yl]amino]pyrazol-1-yl]acetyl]-4-piperidyl]amino]methyl]-cyclopropanecarbonitrile] yielded an IC50 of 236 nM. Compound CN1CCN(C(=O)Cn2cc(Nc3nc4c(N5C[C@H]6CC[C@@H](C5)[C@H]6OCc5cccc(C(=O)N(C)C)c5)cccn4n3)cn2)CC1 [Example 187, N,N-dimethyl-3-[[rac-(1S,5R)-3-[2-[[1-[2-(4-methylpiperazin-1-yl)-2-oxo-ethyl]pyrazol-4-yl]amino]-[1,2,4]triazolo[1,5-a]pyridin-8-yl]-3-azabicyclo[3.2.1]octan-8-yl]oxymethyl]benzamide] has an IC50 of 36.3 nM. Work on CN1CCN(C(=O)Cn2cc(Nc3nc4c(N5CC6CCC(C5)N6S(=O)(=O)c5ccc(Cl)cc5)cccn4n3)cn2)CC1 [Example 93, 2-[4-[[8-[8-(4-chlorophenyl)sulfonyl-3,8-diazabicyclo[3.2.1]octan-3-yl]-[1,2,4]triazolo[1,5-a]pyridin-2-yl]amino]pyrazol-1-yl]-1-(4-methylpiperazin-1-yl)ethanone] yielded an IC50 of 14.1 nM. CN1CCN(C(=O)Cn2cc(Nc3nc4c(N5CC6CCC(C5)N6S(=O)(=O)Cc5ccccc5)cccn4n3)cn2)CC1 [Example 108, 2-[4-[[8-(8-benzylsulfonyl-3,8-diazabicyclo[3.2.1]octan-3-yl)-[1,2,4]triazolo[1,5-a]pyridin-2-yl]amino]pyrazol-1-yl]-1-(4-methylpiperazin-1-yl)ethanone] was tested, and the IC50 was 119 nM. CN1CCN(C(=O)Cn2cc(Nc3nc4c(N5CC6CCCC(C5)N6C(=O)C5CSC5)cccn4n3)cn2)CC1 [Example 96, 1-(4-methylpiperazin-1-yl)-2-[4-[[8-[9-(thietane-3-carbonyl)-3,9-diazabicyclo[3.3.1]nonan-3-yl]-[1,2,4]triazolo[1,5-a]pyridin-2-yl]amino]pyrazol-1-yl]ethanone] was tested, and the IC50 was 17.8 nM. CC(C(=O)N1CCN(C)CC1)n1cc(Nc2nc3c(N4CC5CCC(C4)N5C(=O)C4CC(C(F)(F)F)C4)cccn3n2)cn1 (stereo not drawn) [Example 124, 1-(4-methylpiperazin-1-yl)-2-[4-[[8-[8-(3-(trifluoromethyl)-cyclobutanecarbonyl]-3,8-diazabicyclo[3.2.1]octan-3-yl]-[1,2,4]triazolo[1,5-a]pyridin-2-yl]amino]pyrazol-1-yl]propan-1-one] gave an IC50 of 175 nM. CN(C1CCN(C(=O)Cn2cc(Nc3nc4c(N5CC6CCC(C5)N6C(=O)N5CC(C(F)(F)F)C5)cccn4n3)cn2)CC1)C1COC1 [Example 62, 1-[4-[methyl(oxetan-3-yl)amino]piperidin-1-yl]-2-(4-[[8-(8-[[3-(trifluoromethyl)azetidin-1-yl]carbonyl]-3,8-diazabicyclo[3.2.1]octan-3-yl)-[1,2,4]triazolo[1,5-a]pyridin-2-yl]amino]-1H-pyrazol-1-yl)ethan-1-one] gave an IC50 of 98.4 nM. Compound CN1CCN(C(=O)Cn2cc(Nc3nc4c(N5CC6CCC(C5)N6S(=O)(=O)c5ccccc5Cl)cccn4n3)cn2)CC1 [Example 111, 2-[4-[[8-[8-(2-chlorophenyl)sulfonyl-3,8-diazabicyclo[3.2.1]octan-3-yl]-[1,2,4]triazolo[1,5-a]pyridin-2-yl]amino]pyrazol-1-yl]-1-(4-methylpiperazin-1-yl)ethanone] has an IC50 of 21.4 nM. Work on CN1CCN(C(=O)Cn2cc(Nc3nc4c(N5CC6CCC(C5)N6Cc5cnc(CC(F)(F)F)s5)cccn4n3)cn2)CC1 [Example 101, 1-(4-methylpiperazin-1-yl)-2-[4-[[8-[8-[[2-(2,2,2-trifluoroethyl)thiazol-5-yl]methyl]-3,8-diazabicyclo[3.2.1]octan-3-yl]-[1,2,4]triazolo[1,5-a]pyridin-2-yl]amino]pyrazol-1-yl]ethanone] yielded an IC50 of 414 nM. Compound CN1CCN(C(=O)Cn2cc(Nc3nc4c(N5CC6CCC(C5)N6S(=O)(=O)Cc5ccc(Cl)cc5)cccn4n3)cn2)CC1 [Example 166, 2-[4-[[8-[8-[(4-chlorophenyl)methylsulfonyl]-3,8-diazabicyclo[3.2.1]octan-3-yl]-[1,2,4]triazolo[1,5-a]pyridin-2-yl]amino]pyrazol-1-yl]-1-(4-methylpiperazin-1-yl)ethanone] has an IC50 of 83.5 nM. CC(C(=O)N1CCN(C)CC1)n1cc(Nc2nc3c(N4CC5CCC(C4)N5C(=O)CCC(F)(F)F)cccn3n2)cn1 (stereo not drawn) [Example 104, 4,4,4-trifluoro-1-[3-[2-[[1-[1-methyl-2-(4-methylpiperazin-1-yl)-2-oxo-ethyl]pyrazol-4-yl]amino]-[1,2,4]triazolo[1,5-a]pyridin-8-yl]-3,8-diazabicyclo[3.2.1]octan-8-yl]butan-1-one] showed an IC50 of 66.9 nM. In the case of CN1CCN(C(=O)Cn2cc(Nc3nc4c(N5CC6CCC(C5)N6C(=O)c5ccc(CC#N)cc5)cccn4n3)cn2)CC1 [Example 19, 2-[4-[3-[2-[[1-[2-(4-methylpiperazin-1-yl)-2-oxo-ethyl]pyrazol-4-yl]amino]-[1,2,4]triazolo[1,5-a]pyridin-8-yl]-3,8-diazabicyclo[3.2.1]octane-8-carbonyl]phenyl] acetonitrile], the IC50 is reported as 38.4 nM. With CN1CCN(C(=O)Cn2cc(Nc3nc4c(N5CC6CCC(C5)N6C(=O)c5cccc(Cl)c5)cccn4n3)cn2)CC1 [Example 90, 2-[4-[[8-[8-(3-chlorobenzoyl)-3,8-diazabicyclo[3.2.1]octan-3-yl]-[1,2,4]triazolo[1,5-a]pyridin-2-yl]amino]pyrazol-1-yl]-1-(4-methylpiperazin-1-yl)ethanone] the IC50 was 37.3 nM. O=C(Cn1cc(Nc2nc3c(N4CC5CCC(C4)N5C(=O)N4CC(C(F)(F)F)C4)cccn3n2)cn1)N1CCC(N2CCOCC2)CC1 [Example 44, 1-(4-morpholino-1-piperidyl)-2-[4-[[8-[8-[3-(trifluoromethyl)azetidine-1-carbonyl]-3,8-diazabicyclo[3.2.1]octan-3-yl]-[1,2,4]triazolo[1,5-a]pyridin-2-yl]amino]pyrazol-1-yl]ethanone] was tested, and the IC50 was 57.5 nM. CN1CCN(C(=O)Cn2cc(Nc3nc4c(N5CC6CCC(C5)N6C(=O)N5CC(F)(F)C5)cccn4n3)cn2)CC1 [Example 173, 2-[4-[[8-[8-(3,3-difluoroazetidine-1-carbonyl)-3,8-diazabicyclo[3.2.1]octan-3-yl]-[1,2,4]triazolo[1,5-a]pyridin-2-yl]amino]pyrazol-1-yl]-1-(4-methylpiperazin-1-yl)ethanone] was tested, and the IC50 was 27.4 nM. CN1CCN(C(=O)Cn2cc(Nc3nc4c(N5CC6CCC(C5)N6C(=O)C5CSC5)cccn4n3)cn2)CC1 [Example 3, 1-(4-methylpiperazin-1-yl)-2-[4-[[8-[8-(thietane-3-carbonyl)-3,8-diazabicyclo[3.2.1]octan-3-yl]-[1,2,4]triazolo[1,5-a]pyridin-2-yl]amino]pyrazol-1-yl]ethanone] gave an IC50 of 36.8 nM. With CN1CCN(C(=O)Cn2cc(Nc3nc4c(N5CC6CCC(C5)N6S(=O)(=O)CCCC#N)cccn4n3)cn2)CC1 [Example 176, 4-[[3-[2-[[1-[2-(4-methylpiperazin-1-yl)-2-oxo-ethyl]pyrazol-4-yl]amino]-[1,2,4]triazolo[1,5-a]pyridin-8-yl]-3,8-diazabicyclo[3.2.1]octan-8-yl]sulfonyl]butanenitrile] the IC50 was 25.4 nM. CSc1ccccc1S(=O)(=O)N1C2CCC1CN(c1cccn3nc(Nc4cnn(CC(=O)N5CCN(C)CC5)c4)nc13)C2 [Example 132, 1-(4-methylpiperazin-1-yl)-2-[4-[[8-[8-(2-methylsulfanylphenyl)sulfonyl-3,8-diazabicyclo[3.2.1]octan-3-yl]-[1,2,4]triazolo[1,5-a]pyridin-2-yl]amino]pyrazol-1-yl]ethanone] showed an IC50 of 473 nM. For CC(C(=O)N1CCN(C)CC1)n1cc(Nc2nc3c(N4CC5CCCC(C4)N5C(=O)CCC(F)(F)F)cccn3n2)cn1 (stereo not drawn) [Example 105, 4,4,4-trifluoro-1-[3-[2-[[1-[1-methyl-2-(4-methylpiperazin-1-yl)-2-oxo-ethyl]pyrazol-4-yl]amino]-[1,2,4]triazolo[1,5-a]pyridin-8-yl]-3,9-diazabicyclo[3.3.1]nonan-9-yl]butan-1-one], the IC50 was 41.2 nM. Work on CSCCCC(=O)N1C2CCC1CN(c1cccn3nc(Nc4cnn(CC(=O)N5CCN(C)CC5)c4)nc13)C2 [Example 17, 1-[3-[2-[[1-[2-(4-methylpiperazin-1-yl)-2-oxo-ethyl]pyrazol-4-yl]amino]-[1,2,4]triazolo[1,5-a]pyridin-8-yl]-3,8-diazabicyclo[3.2.1]octan-8-yl]-4-methylsulfanyl-butan-1-one] yielded an IC50 of 24.9 nM.
